From ChEMBL document CHEMBL2346629, “Discovery and characterization of novel allosteric FAK inhibitors” (Eur J Med Chem, 2013) come the findings set out here.

Sequences of proteins named here, by UniProt entry; tags and fusion partners are left off.
UniProt Q05397, whole entry: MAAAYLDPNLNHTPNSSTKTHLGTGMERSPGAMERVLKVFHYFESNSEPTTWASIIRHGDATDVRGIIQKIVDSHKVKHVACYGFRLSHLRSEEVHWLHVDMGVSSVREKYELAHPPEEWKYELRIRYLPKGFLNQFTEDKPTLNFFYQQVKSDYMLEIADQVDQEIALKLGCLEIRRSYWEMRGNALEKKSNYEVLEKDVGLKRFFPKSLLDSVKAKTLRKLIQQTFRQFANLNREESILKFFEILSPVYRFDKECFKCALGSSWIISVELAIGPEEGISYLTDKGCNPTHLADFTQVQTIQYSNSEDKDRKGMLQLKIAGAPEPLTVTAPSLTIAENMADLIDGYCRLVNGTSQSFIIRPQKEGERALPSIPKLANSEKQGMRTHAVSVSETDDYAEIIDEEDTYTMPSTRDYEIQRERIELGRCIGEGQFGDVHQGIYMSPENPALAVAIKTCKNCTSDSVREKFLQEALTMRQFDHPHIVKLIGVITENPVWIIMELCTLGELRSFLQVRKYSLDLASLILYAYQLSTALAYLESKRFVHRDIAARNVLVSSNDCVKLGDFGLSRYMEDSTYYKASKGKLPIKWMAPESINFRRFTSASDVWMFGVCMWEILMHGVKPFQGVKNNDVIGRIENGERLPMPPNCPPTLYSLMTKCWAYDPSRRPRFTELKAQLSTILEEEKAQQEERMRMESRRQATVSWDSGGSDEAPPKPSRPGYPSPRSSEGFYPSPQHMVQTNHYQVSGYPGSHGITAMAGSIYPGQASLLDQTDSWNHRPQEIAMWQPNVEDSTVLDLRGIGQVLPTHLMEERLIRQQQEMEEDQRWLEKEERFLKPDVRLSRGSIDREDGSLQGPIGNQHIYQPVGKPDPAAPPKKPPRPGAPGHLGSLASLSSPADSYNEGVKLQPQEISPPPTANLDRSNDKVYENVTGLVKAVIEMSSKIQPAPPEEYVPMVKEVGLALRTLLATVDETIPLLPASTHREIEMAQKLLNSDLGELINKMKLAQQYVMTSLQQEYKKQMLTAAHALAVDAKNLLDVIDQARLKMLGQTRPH

This experiment has as its target Focal adhesion kinase 1 (Homo sapiens, UniProt Q05397).

In general, IC50 refers to the concentration that gives 50% inhibition. A higher IC50 goes with weaker potency in that assay.

In the case of `CCc1ccc(-c2ccc3c(c2)-c2c(cnn2CC)S(=O)(=O)N3C)cc1`, the concentration for half-maximal inhibition (IC50) worked out at 8.7 µM.
